Data reported in patent US20080182822A1, “Liquid Pharmaceutical Compositions Comprising a Bisphosphonate Compound” (Besins Healthcare SA, priority 2006, published 2008).

Conditions: rat, dermal (Group 2), necropsy Day 8, Mean

Question: Which “Recovery from Treated Skin, Amount in Skin Sample” value does the source give for `NCCCC(O)(P(=O)(O)O)P(=O)(O)O` [14C-alendronate] here?
Answer: 5.26 µg
